Assay results: US8263526B2, “Compositions of keratin hydrolysate and microbes for pest control applications” (priority 2006, dated 2012)

Tested on: blastospores of Paecilomyces fumosoroseus ARSEF 3581
Experiment: % germination assay (6-hr) of blastospores in surfactant solutions
Assay type: cell-based
Settings: 28° C.
Protocol: Blastospore suspensions (˜1×10^8 blastospores/ml) were prepared by adding 1.3 g of the dried blastospores of P. fumosoroseus formulate to 100 ml sterile deionized water. The spore suspension was stirred for 30 minutes, and then allowed to stand 1 minute to allow the diatomaceous earth to settle. Without disturbing the diatomaceous earth, 30 ml of the spore suspension was removed and transferred to a sterile bottle. The blastospore concentration of the suspension was measured using a hemacytometer.
A one ml aliquot of the previously described blastospore suspension was added to 49 ml of the foaming agents in a 250 ml baffled Erlenmeyer flask. The blastospore suspensions were incubated in a rotary shaker incubator (Innova 4000, New Brunswick) at 300 RPM and 28° C. for 6 hours. Blastospore germination was measured by microscopic observation of the germ tube formation. Four slides were prepared from the incubated blastospore suspension using separate pipets. Germ tube formation was measured for 100 blastospores on each slide. A total of 400 blastospores were counted from each flask.

Measured: % viability 6-hr germination

sodium linear alkyl benzene sulfonate [Na linear alkyl benzene sulfonate]
0.0%: surfactant 0.5% (w/w) | surfactant 1.0% (w/w) | surfactant 2.0% (w/w)
